Assays:
[1] = biological target: Induced myeloid leukemia cell differentiation protein Mcl-1 (Homo sapiens, UniProt Q07820); assay: Binding affinity to MCL1 (unknown origin) by fluorescence polarization assay
[2] = biological target: Apoptosis regulator Bcl-2 (Homo sapiens, UniProt P10415); assay: Binding affinity to BCL2 (unknown origin) by fluorescence polarization assay

Chains of the proteins cited; added tags and fusions are not shown.
UniProt Q07820, whole entry: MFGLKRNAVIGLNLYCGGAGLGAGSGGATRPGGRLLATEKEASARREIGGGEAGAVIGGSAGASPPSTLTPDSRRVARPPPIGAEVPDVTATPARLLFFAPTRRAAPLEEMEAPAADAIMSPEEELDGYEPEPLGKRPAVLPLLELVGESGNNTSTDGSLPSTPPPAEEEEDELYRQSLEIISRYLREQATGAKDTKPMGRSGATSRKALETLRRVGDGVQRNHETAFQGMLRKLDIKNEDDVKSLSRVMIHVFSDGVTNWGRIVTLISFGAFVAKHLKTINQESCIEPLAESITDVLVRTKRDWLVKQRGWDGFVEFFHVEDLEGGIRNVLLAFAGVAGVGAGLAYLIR
UniProt P10415, whole entry: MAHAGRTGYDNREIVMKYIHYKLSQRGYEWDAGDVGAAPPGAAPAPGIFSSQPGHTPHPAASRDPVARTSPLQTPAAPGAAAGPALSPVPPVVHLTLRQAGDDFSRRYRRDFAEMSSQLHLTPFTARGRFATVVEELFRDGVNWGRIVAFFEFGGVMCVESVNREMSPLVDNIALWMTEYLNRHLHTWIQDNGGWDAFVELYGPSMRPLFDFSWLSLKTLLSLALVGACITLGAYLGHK

SMILES | IC50 [1] [nM] | Ki [2] [nM]
CN(C)CC[C@H](CSc1ccccc1)Nc1ccc(S(=O)(=O)NC(=O)c2ccc(N3CCN(Cc4ccccc4-c4ccc(Cl)cc4)CC3)cc2)cc1[N+](=O)[O-] [ABT 737] | > 1000 | –
CC1(C)CCC(c2ccc(Cl)cc2)=C(CN2CCN(c3ccc(C(=O)NS(=O)(=O)c4ccc(N[C@H](CCN5CCOCC5)CSc5ccccc5)c(S(=O)(=O)C(F)(F)F)c4)cc3)CC2)C1 [NAVITOCLAX] | – | < 1

— ChEMBL document CHEMBL3817778, “Small molecules targeting Mcl-1: the search for a silver bullet in cancer therapy” (Medchemcomm, 2016)
